Reference: patent US20150315211A1, “SMALL MOLECULES FOR THE MODULATION OF MCL-1 AND METHODS OF MODULATING CELL DEATH, CELL DIVISION, CELL DIFFERENTIATION AND METHODS OF TREATING DISORDERS” (priority 2010, published 2015)

Protein sequences, listed by entry. Tags and fused reporters are not part of them. Residues count along the entry.
UniProt Q07820, 172-320 limits assumed, stated change not applied: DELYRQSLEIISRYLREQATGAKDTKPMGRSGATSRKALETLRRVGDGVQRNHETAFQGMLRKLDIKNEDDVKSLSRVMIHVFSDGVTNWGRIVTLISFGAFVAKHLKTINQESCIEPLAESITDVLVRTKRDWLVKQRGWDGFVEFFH
UniProt Q07817, 1-212 limits assumed, stated change not applied: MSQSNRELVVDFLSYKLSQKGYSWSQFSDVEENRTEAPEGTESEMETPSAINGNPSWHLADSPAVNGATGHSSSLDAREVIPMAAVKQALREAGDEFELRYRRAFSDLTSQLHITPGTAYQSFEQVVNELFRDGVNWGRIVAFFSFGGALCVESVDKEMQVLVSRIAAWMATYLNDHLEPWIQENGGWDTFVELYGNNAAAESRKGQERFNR

What was measured:
MCL-1ΔNΔC [1] = target: MCL-1ΔNΔC (Homo sapiens, UniProt Q07820); experiment: High-throughput competitive FP binding screen, FITC-MCL-1 SAHB/MCL-1ΔNΔC interaction; conditions: FITC-MCL-1 SAHB/MCL-1ΔNΔC interaction pair, competitive FP screen
MCL-1ΔNΔC [2] = experiment: as above; conditions: selectivity for MCL-1ΔNΔC over BCL-XLΔC targeting (BCL-XL % Bound minus MCL-1 % Bound)
BCL-XLΔC = BCL-XLΔC (Homo sapiens, UniProt Q07817); experiment: High-throughput competitive FP binding screen, FITC-BAD BH3/BCL-XLΔC interaction; conditions: FITC-BAD BH3/BCL-XLΔC interaction pair

COc1ccc(OC)c(C=C(C#N)C#N)c1
MCL-1% Bound (MCL-1ΔNΔC [1]): −7.035%
Spec Values (MCL-1ΔNΔC [2]): 105.6
BCL-XL % Bound (BCL-XLΔC): 98.56%
